Test results reported in US8816053B2 (ZymoGenetics, Inc., priority 2004, dated 2014).

Key:
EMCV = EMCV antiviral assay (MTT dye uptake) in HepG2 cells; assay type: cell-based, encephalomyocarditis virus; conditions: cytokine 24 hours prior to EMCV, OD570 dye-uptake
[1] = tested on: human marrow mononuclear cells; assay: Bone marrow expansion assay (Alamar Blue); assay type: cell-based; conditions: all conditions tested

Substance: HuIFN-a2a: human interferon alpha-2a
- EC50 (EMCV): 0.57 ng/mL
- bone marrow expansion [1]: significant inhibition

Substance: IFN-β: interferon beta (PBL Biomedical)
- EC50 (EMCV): 0.46 ng/mL
